Source: PubChem BioAssay
This is a sample that favours compounds with a hit; in the whole collection about 0.72% have one here.
ERG-DNA inh = inhibitors of human ERG Ets domain-DNA interaction; Potency, µM (series often up to 76.9 µM), for the others: top-dose FP activity, negative = inhibition, actives largely listed as inhibitors; AID 624246; P11308; 370,000 compounds, 0.028% hits; fluorescence polarization, His-ERG Ets domain / labelled DNA; active = well fitted inhibition curve with a large enough effect in the polarisation, with a control signal flat; inconclusive = small, poorly fitted or top-dose-only effect, or effect the other way, or a change in a side signal; inactive = no such curve, though single readings can be large or run the other way; the % refers to the polarisation;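 also: polarization taken with two DNA probes labelled with fluorescein and Texas red; potency is read from the fitted curve at half-maximal effect; % of control where 0% means no effect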
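His-tagged ERG Ets domain (1 uM in the protein solution; 300mM KCl, 50mM Tris-HCl, 1mM EDTA, 1mM DTT, pH 7.5) received compound, then a probe mix of 5 nM fluorescein-DNA and 100nM Texas-615-DNA. Fluorescence polarization was read for both dyes.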
RXFP1 antagonist = RXFP1 (human) relaxin receptor antagonism; Q9HBX9; 350,000 compounds, 0.59% hits; activity change, negative = inhibition, % at 57.5 µM; HEK293-RXFP1, relaxin-stimulated cAMP HTRF, 30 min; hits give low values;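 active = activity change of -60% or lower, but not beyond a set lower limit; inconclusive = change between -60% and -40%, or beyond the set limit; inactive = change above -40%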; also: % is scaled to controls: 0 for no effect and ±100 for the full control effect
ASM inhibitor = blocks human secretory acid sphingomyelinase; P17405; placental ASM, HMU-PC fluorogenic substrate, 60 min; Potency, µM (highest dose often 57.5 µM), for the others: top-dose activity change, negative = inhibition, actives largely listed as inhibitors; 340,000 compounds, 0.006% hits; AID 504937; also: potency is read from the fitted curve at half-maximal effect
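Human placenta-derived ASM preincubated with compound 10 min at room temperature, then reacted with 9 uM (final) fluorogenic HMU-PC substrate for 60 min at 37 C. Stop solution raises pH to 10; fluorescence read at Ex 386/Em 447 nm.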
Mito fusion act = inhibitors of mitochondrial division or activators of mitochondrial fusion | AID 485298 | 320,000 compounds, 0.23% hits | S. cerevisiae fusion-defective mutant growth rescue, CellTiterGlo 48 h | Potency, µM (top dose mostly 46.1 µM), inactives show top-dose growth rescue (activation), most hits filed as activators; also: potency is read from the fitted curve at half-maximal effect; % of control where 0% means no effect; nearly all actives have a fitted effect of over 45% in size
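Read-out: ATP-based luminescence (CellTiterGlo, 10 min ambient) reporting growth of fusion-defective ts yeast after 48 hours at 37C on glycerol/ethanol YPEG medium in the presence of compound.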
miR-21 reporter = raises the signal of a miR-21 reporter; AID 2288; 340,000 tested, under 10 active; Potency, µM (doses to about 38.3 µM), inactives show at the top dose reporter change, positive = more light; HeLa miR-21 FLuc reporter, luciferase, 48 h; active = well fitted rising curve with a large enough effect; inconclusive = small, poorly fitted or top-dose-only effect; inactive = no such curve, though single readings can be large or run the other way;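 note: % of control where 0% means no effect; miR-21 action dims this reporter so a rising signal means less miR-21 action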
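Luminescence from a firefly luciferase reporter carrying a miR-21 binding site downstream, stably expressed under a CMV promoter in HeLa cells that make miR-21 endogenously, reports miRNA modulation after 48 h compound exposure up to approximately 40uM final.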
RXFP1 agonist = activates the human relaxin receptor RXFP1. Q9HBX9. HEK293T-RXFP1 cAMP TR-FRET, 30 min; response scale: percent of porcine relaxin response, buffer zero. Potency, µM (titrated, usually from 57.5 µM), without a hit: at the top dose activation, hits mostly activators. 370,000 compounds, 0.3% hits. AID 2676; also: potency is read from the fitted curve at half-maximal effect; % is scaled to controls: 0 for no effect and ±100 for the full control effect; nearly all actives have a fitted effect of over 60% in size
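cAMP rise read by TR-FRET after 30 min, 37C compound exposure (up to 58 uM) in RXFP1-transfected HEK293 cells with Ro 20174 present. EC50 from Hill-equation fits, with 29 nM porcine relaxin as 100% and buffer as basal.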
Active calls of the source: *; u = inconclusive; x = no result; ! = a repeat was not active; [ ] = remark or other dose. Unless noted, calls follow the shape of the dose curve; as a rule, active = well fitted curve in the direction sought with a large enough effect; inconclusive = small, poorly fitted or top-dose-only effect, or another doubt; inactive = no such curve, though single readings can be large; an effect the other way counts as inactive or inconclusive.

SMILES	ERG-DNA inh	RXFP1 antagonist	ASM inhibitor	Mito fusion act	miR-21 reporter	RXFP1 agonist
CCOC(=O)C1CCN(C(=O)c2oc3ccc4c(c3c2C)C(O)CC2(CCCCC2)O4)CC1 (stereo unspecified)	-4%	-94*	-12%	-13%	14%	0%
CN(C)c1nc(-c2cn(CCC#N)c3ccccc23)cs1	8%	-82*	-1%	-1%	u	1%
O=C(Nc1ccc(N2CCOCC2)c(Cl)c1)c1ccc2c(c1)OCCO2	-1%	-6	2%	u	8%	0%
Cc1ccc(NC(=O)c2cc(N3C(=O)C=CC3=O)ccc2N2CCOCC2)cc1Cl	-3%	-71*	-1%	2%	29%	-1%
O=C(Nc1ccc(N2CCOCC2)c(Cl)c1)c1ccc(Cl)cc1	-4%	-83*	-3%	26%	9%	2%
COc1ccc(N(C)C(=O)c2ccc3c(Cl)c4c(nc3c2)CCCC4)c(OC)c1	-1%	-96*	-2%	u	4%	2%
CCN(C(=O)c1ccc2c(Cl)c3c(nc2c1)CCC3)c1cccc(C)c1	x	x	x	u	1%	1%
CCc1ccc(N(CC)C(=O)c2ccc3c(Cl)c4c(nc3c2)CCC4)cc1	12%	-76*	u	18%	-2%	2%
Cc1ccc(N(C)C(=O)c2ccc3c(Cl)c4c(nc3c2)CCC4)cc1C	10%	-89*	-18%	u	-36%	1%
CCc1cc(=O)[nH]c(SCc2nc(-c3cccc(Cl)c3)no2)n1	17%	-15	x	x	2%	3%
Cc1cc(C)n(-c2cc(C(C)(C)C)nc3c(-c4ccccc4)cnn23)n1	-3%	-80*	-5%	8%	-94%	-1%
CN(C(=O)c1cc(S(=O)(=O)N2CCc3ccccc32)cn1C)C1CCCCC1	1%	-103*	3%	2%	6%	0%
CC(C)(C)c1cc(C=O)cc(C(C)(C)C)c1O	x	-20	x	x	x	x
CCOC(=O)C(=O)c1csc(NC=O)n1	x	10	x	x	x	x
CCOc1cc(CNCCO)cc(Br)c1OCc1ccc(Cl)cc1Cl	7%	-92*	u	-26%	u	2%
O=C(c1ccc(-c2ccccc2Cl)o1)N1CCN(c2ccccc2O)CC1	5%	-2	-3%	18µM*	x	2%
Cc1cccc2nc(-c3cccnc3)c(Nc3ccc(C(C)C)cc3)n12	-2%	-88*	x	x	u	0%
Cc1ccc(CN(Cc2ccco2)C(=O)COc2cccc(C)c2C)o1	1%	-96*	x	x	7%	0%
Cc1cccc(OCC(=O)N(Cc2ccc(N(C)C)cc2)Cc2ccco2)c1C	1%	-17	x	x	21%	-1%
Cc1ccc(CN(Cc2ccco2)C(=O)COc2ccc(Cl)cc2)o1	0%	-69*	x	x	14%	-1%

Record cards (already shown). Values in the order: ERG-DNA inh | RXFP1 antagonist | ASM inhibitor | Mito fusion act | miR-21 reporter | RXFP1 agonist
O=C(Nc1ccc(N2CCOCC2)c(Cl)c1)c1ccc2c(c1)OCCO2 is listed with -1% | -6 | 2% | u | 8% | 0%
CC(C)(C)c1cc(C=O)cc(C(C)(C)C)c1O is listed with x | -20 | x | x | x | x
Cc1ccc(CN(Cc2ccco2)C(=O)COc2cccc(C)c2C)o1 is listed with 1% | -96* | x | x | 7% | 0%
Cc1cc(C)n(-c2cc(C(C)(C)C)nc3c(-c4ccccc4)cnn23)n1 is listed with -3% | -80* | -5% | 8% | -94% | -1%

Next part
SMILES	ERG-DNA inh	RXFP1 antagonist	ASM inhibitor	Mito fusion act	miR-21 reporter	RXFP1 agonist
O=C(O)CC(NC(=O)C12CC3CC(CC(C3)C1)C2)c1cc([N+](=O)[O-])ccc1Cl (stereo unspecified)	2%	2	3%	3.5µM*	-9%	1%
O=C(O)CC(NC(=O)C1CCCCC1)c1cc([N+](=O)[O-])ccc1Cl (stereo unspecified)	3%	-1	-2%	3%	2%	0%
CCCCOc1ccc(Br)cc1CSC(=N)N	1%	-71*	-4%	7%	u	1%
COc1ccccc1C1CCN(Cc2ccc(C)cc2)CC1	32µM*	-9	-1%	-1%	-4%	0%
Cc1cc(C)c2oc(C(=O)NCc3ccccc3)cc(=O)c2c1	3%	-7	0%	12%	0%	3%
Cc1ccc2c(CN(C)Cc3ccccc3)cc(=O)oc2c1C	35µM*	-28	-4%	0%	-16%	2%
Cc1ccc2c(=O)cc(C(=O)NCc3ccccc3)oc2c1C	10%	12	-4%	13µM*	0%	-2%
COc1ccc(/C=N/Nc2cc(C)nc3c(C)cccc23)cc1	1%	-28	119%	-4%	u	2%
COc1ccc(/C=N/Nc2cc(C)nc3ccccc23)cc1	12%	-71*	61%	-4%	u	0%
CCOC(=O)c1ccc(NC(=O)c2csc3c2CCCC3)cc1	0%	-93*	x	x	u	-2%
CCOc1ccc(NC(=O)c2csc3c2CCCC3)cc1	-17%	x	0%	18%	-75%	2%
CNC(=O)C1CCC(Cn2c(=O)c3sccc3n(CC(=O)NCc3ccc(F)cc3)c2=O)CC1 (stereo unspecified)	-14%	-4	x	x	0%	4%
CC#C[C@]1(O)CC[C@H]2[C@@H]3CCC4=CC(=O)CCC4=C3[C@@H](c3ccc(N(C)C)cc3)C[C@@]21C	-2%	-36	-11%	9.2µM*!	16%	3%
O=C(NCC1CCCO1)C(c1cccs1)N(Cc1cccs1)C(=O)c1ccc(-c2ccccc2)[nH]1 (stereo unspecified)	-1%	-20	-14%	16µM*	11%	7%
CC1(C)CC(NC(=O)C2CCN(S(=O)(=O)c3ccc(F)cc3)CC2)CC(C)(C)N1	8%	-5	-2%	-2%	-5%	0%
NC(=O)c1nsc(C(=O)N(CC(=O)NC2CCCCC2)c2cccc(F)c2)c1N	5%	-6	69%[11.5 µM]	0%	-6%	3%
NC(=O)c1nsc(C(=O)N(CC(=O)NC2CCCC2)c2ccc(F)c(Cl)c2)c1N	2%	-65*	187%	-1%	-7%	1%
Clc1ccc(C[n+]2csc3ccccc32)cc1	x	-16	-5%	11µM*	-18%	0%
Fc1ccc(C[n+]2csc3ccccc32)cc1	-5%	-9	0%	2%	1%	13%
CCOC(=O)c1c(C)n(-c2ccccc2)c2ccc(OC(=O)c3ccccc3NC(=O)C(C)C)cc12	24%	-32	x	x	0%	-1%
CCOC(=O)c1c(C)n(-c2ccccc2)c2ccc(OC(=O)c3ccccc3NC(=O)C(C)(C)C)cc12	0%	-64*	x	x	-8%	0%
CC(=O)Nc1cccc(S(C)(=O)=O)c1	20µM*	18	2%	-8%	2%	-1%
O=S(=O)(NCCC1=CCCCC1)c1ccc(Br)cc1	2%	-70*	-6%	4%	-3%	-1%
CCN(CC)CCCCN1c2ccccc2Sc2ccccc21	4%	-63*	-4%	-59%	8%	-1%
CCCN(CC1CC1)c1nc(N)c(C#N)c(CC#N)c1C#N	11%	6	-17%	1%	-17%	0%
CCCN(CC1CC1)c1nc(C)nc(Nc2c(Cl)cc(Cl)cc2Cl)c1Cl	30%	x	-9%	15µM*	x	x

Entries listed so far that contain a cyano group:
SMILES	ERG-DNA inh	RXFP1 antagonist	ASM inhibitor	Mito fusion act	miR-21 reporter	RXFP1 agonist
CN(C)c1nc(-c2cn(CCC#N)c3ccccc23)cs1	8%	-82*	-1%	-1%	u	1%
CCCN(CC1CC1)c1nc(N)c(C#N)c(CC#N)c1C#N	11%	6	-17%	1%	-17%	0%
